{"sequences": {"note": "The chains behind the UniProt entries cited, without tags or fusion partners.", "UniProt P50750, whole entry": "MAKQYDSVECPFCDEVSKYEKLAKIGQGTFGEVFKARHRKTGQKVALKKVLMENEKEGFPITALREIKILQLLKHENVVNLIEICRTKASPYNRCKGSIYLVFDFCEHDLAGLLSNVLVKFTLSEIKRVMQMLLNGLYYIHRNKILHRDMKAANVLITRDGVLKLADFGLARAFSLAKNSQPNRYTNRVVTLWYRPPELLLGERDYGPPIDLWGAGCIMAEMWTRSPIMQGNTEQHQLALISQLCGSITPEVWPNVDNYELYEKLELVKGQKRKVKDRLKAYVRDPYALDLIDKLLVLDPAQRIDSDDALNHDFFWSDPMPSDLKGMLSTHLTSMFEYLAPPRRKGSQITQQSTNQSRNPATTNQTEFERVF"}, "source": "paper PMC6013488", "about": "“A widely-applicable high-throughput cellular thermal shift assay (CETSA) using split Nano Luciferase” (Scientific Reports, 2018)", "target": "T1, CDK9/cyclin K (Homo sapiens, UniProt P50750)", "T1 construct": "purchased Invitrogen (ThermoFisher) PV4335", "assay": "TR-FRET Lanthascreen Eu Kinase Binding assay"}
{"smiles": "CN1CC[C@H](c2c(O)cc(O)c3c(=O)cc(-c4ccccc4Cl)oc23)[C@H](O)C1", "note": "[Flavopiridol]", "values": [{"measurement": "Curve Class", "setting": "classifies curves by quality of fit, efficacy and number of asymptotes", "result": 5}, {"measurement": "Efficacy", "setting": "difference between highest and lowest activity across concentration range, in %", "result": -38.0}, {"measurement": "Max Resp", "setting": "in %", "result": -96.7}]}
